{"source": "patent US20260382623A1", "about": "“NOVEL COMPOUND FOR INHIBITING PROTEIN KINASES AND PHARMACEUTICAL COMPOSITION COMPRISING SAME” (published 2026)", "key": {"C4-2B cells": {"tested_on": "C4-2B cells", "experiment": "Cell growth inhibition, C4-2B (CCK-8)", "conditions": "read-out: Cell growth inhibition GI50, 72 hours"}, "A172": {"tested_on": "A172", "experiment": "Cell growth inhibition, A172 (CCK-8)", "conditions": "read-out: Cell growth inhibition GI50, A172, 72 hours"}, "A549": {"tested_on": "A549", "experiment": "Cell growth inhibition, A549 (CCK-8)", "conditions": "read-out: Cell growth inhibition GI50, A549, 72 hours"}, "HT-29": {"tested_on": "HT-29", "experiment": "Cell growth inhibition, HT-29 (CCK-8)", "conditions": "read-out: Cell growth inhibition GI50, HT-29, 72 hours"}, "22Rv1 cells": {"tested_on": "22Rv1 cells", "experiment": "Cell growth inhibition, 22Rv1 (CCK-8)", "conditions": "read-out: Cell growth inhibition GI50, 22Rv1, 72 hours"}, "HCI-H460": {"tested_on": "HCI-H460", "experiment": "Cell growth inhibition, HCI-H460 (CCK-8)", "conditions": "read-out: Cell growth inhibition GI50, HCI-H460, 72 hours"}, "DLD-1": {"tested_on": "DLD-1", "experiment": "Cell growth inhibition, DLD-1 (CCK-8)", "conditions": "read-out: Cell growth inhibition GI50, DLD-1, 72 hours"}, "SW480": {"tested_on": "SW480", "experiment": "Cell growth inhibition, SW480 (CCK-8)", "conditions": "read-out: Cell growth inhibition GI50, SW480, 72 hours"}, "SW620": {"tested_on": "SW620", "experiment": "Cell growth inhibition, SW620 (CCK-8)", "conditions": "read-out: Cell growth inhibition GI50, SW620, 72 hours"}, "MDA-MB-231": {"tested_on": "MDA-MB-231", "experiment": "Cell growth inhibition, MDA-MB-231 (CCK-8)", "conditions": "read-out: Cell growth inhibition GI50, MDA-MB-231, 72 hours"}, "SKOV3": {"tested_on": "SKOV3", "experiment": "Cell growth inhibition, SKOV3 (CCK-8)", "conditions": "read-out: Cell growth inhibition GI50, SKOV3, 72 hours"}, "AsPC-1": {"tested_on": "AsPC-1", "experiment": "Cell growth inhibition, AsPC-1 (CCK-8)", "conditions": "read-out: Cell growth inhibition GI50, AsPC-1, 72 hours"}, "HCT-116": {"tested_on": "HCT-116", "experiment": "Cell growth inhibition, HCT-116 (CCK-8)", "conditions": "read-out: Cell growth inhibition GI50, HCT-116, 72 hours"}, "MIA-Paca-2": {"tested_on": "MIA-Paca-2", "experiment": "Cell growth inhibition, MIA-Paca-2 (CCK-8)", "conditions": "read-out: Cell growth inhibition GI50, MIA-Paca-2, 72 hours"}}, "data": [{"smiles": "Cc1cn(-c2cc(C(=O)Nc3ccc(C)c(N4Cc5cnc(N)nc5C5(CC5)C4=O)c3)cc(C(F)(F)F)c2)cn1", "values": [{"measurement": "GI50", "setting": "C4-2B cells", "result": "< 5", "unit": "µM"}]}, {"smiles": "Cc1ccc(NC(=O)c2cccc(C(F)(F)F)c2)cc1N1Cc2cnc(NCCO)nc2C2(CC2)C1=O", "values": [{"measurement": "GI50", "setting": "A172", "result": "< 5", "unit": "µM"}, {"measurement": "GI50", "setting": "A549", "result": "< 5", "unit": "µM"}, {"measurement": "GI50", "setting": "HT-29", "result": "< 10", "unit": "µM"}]}, {"smiles": "Cc1ccc(NC(=O)c2cc(N3CCOCC3)cc(C(F)(F)F)c2)cc1N1Cc2cnc(N)nc2C2(CC2)C1=O", "values": [{"measurement": "GI50", "setting": "C4-2B cells", "result": "< 5", "unit": "µM"}]}, {"smiles": "Cc1ccc(NC(=O)c2ccc(Cl)c(C(F)(F)F)c2)cc1N1Cc2cnc(N)nc2C2(CC2)C1=O", "values": [{"measurement": "GI50", "setting": "C4-2B cells", "result": "< 5", "unit": "µM"}, {"measurement": "GI50", "setting": "22Rv1 cells", "result": "< 5", "unit": "µM"}]}, {"smiles": "Cc1cc(Nc2ncc3c(n2)C2(CC2)C(=O)N(c2cc(NC(=O)c4cccc(C(F)(F)F)c4)ccc2C)C3)n(C)n1", "values": [{"measurement": "GI50", "setting": "C4-2B cells", "result": "< 5", "unit": "µM"}]}, {"smiles": "COCCN(C)c1cc(C(=O)Nc2ccc(C)c(N3Cc4cnc(NC5CC5)nc4C4(CC4)C3=O)c2)cc(C(F)(F)F)c1", "values": [{"measurement": "GI50", "setting": "C4-2B cells", "result": "< 5", "unit": "µM"}]}, {"smiles": "Cc1ccc(NC(=O)c2cc(F)cc(F)c2)cc1N1Cc2cnc(N)nc2C2(CC2)C1=O", "values": [{"measurement": "GI50", "setting": "C4-2B cells", "result": "< 10", "unit": "µM"}]}, {"smiles": "Cc1ccc(NC(=O)c2cc(N3CCN(C)CC3)cc(C(F)(F)F)c2)cc1N1Cc2cnc(NC3CC3)nc2C2(CC2)C1=O", "values": [{"measurement": "GI50", "setting": "C4-2B cells", "result": "< 5", "unit": "µM"}]}, {"smiles": "Cc1ccc(NC(=O)c2cc(N3CCN(C)CC3)cc(C(F)(F)F)c2)cc1N1Cc2cnc(N)nc2C2(CC2)C1=O", "values": [{"measurement": "GI50", "setting": "C4-2B cells", "result": "< 10", "unit": "µM"}]}, {"smiles": "Cc1ccc(NC(=O)c2cc(N(C)CCN(C)C)cc(C(F)(F)F)c2)cc1N1Cc2cnc(NC3CC3)nc2C2(CC2)C1=O", "values": [{"measurement": "GI50", "setting": "C4-2B cells", "result": "< 10", "unit": "µM"}]}, {"smiles": "COc1cc(C(=O)Nc2ccc(C)c(N3Cc4cnc(N)nc4C4(CC4)C3=O)c2)cc(C(F)(F)F)c1", "values": [{"measurement": "GI50", "setting": "C4-2B cells", "result": "< 5", "unit": "µM"}, {"measurement": "GI50", "setting": "22Rv1 cells", "result": "< 5", "unit": "µM"}]}, {"smiles": "Cc1ccc(NC(=O)c2cc(O)cc(C(F)(F)F)c2)cc1N1Cc2cnc(N)nc2C2(CC2)C1=O", "values": [{"measurement": "GI50", "setting": "C4-2B cells", "result": "< 10", "unit": "µM"}]}, {"smiles": "Cc1ccc(NC(=O)c2cncc(C(F)(F)F)c2)cc1N1Cc2cnc(NCCO)nc2C2(CC2)C1=O", "values": [{"measurement": "GI50", "setting": "A172", "result": "< 5", "unit": "µM"}]}, {"smiles": "Cc1ccc(NC(=O)c2cc(N3CCNCC3)cc(C(F)(F)F)c2)cc1N1Cc2cnc(N)nc2C2(CC2)C1=O", "values": [{"measurement": "GI50", "setting": "C4-2B cells", "result": "< 10", "unit": "µM"}]}, {"smiles": "Cc1ccc(NC(=O)c2cncc(C(F)(F)F)c2)cc1N1Cc2cnc(N[C@@H](C)CO)nc2C2(CC2)C1=O", "values": [{"measurement": "GI50", "setting": "A172", "result": "< 5", "unit": "µM"}]}, {"smiles": "Cc1ccc(NC(=O)c2cccc(C(F)(F)F)c2)cc1N1Cc2cnc(N)nc2C2(CC2)C1=O", "values": [{"measurement": "GI50", "setting": "C4-2B cells", "result": "< 5", "unit": "µM"}, {"measurement": "GI50", "setting": "22Rv1 cells", "result": "< 5", "unit": "µM"}, {"measurement": "GI50", "setting": "HCI-H460", "result": "< 5", "unit": "µM"}, {"measurement": "GI50", "setting": "DLD-1", "result": "< 5", "unit": "µM"}, {"measurement": "GI50", "setting": "SW480", "result": "< 5", "unit": "µM"}, {"measurement": "GI50", "setting": "SW620", "result": "< 5", "unit": "µM"}, {"measurement": "GI50", "setting": "MDA-MB-231", "result": "< 5", "unit": "µM"}, {"measurement": "GI50", "setting": "SKOV3", "result": "< 5", "unit": "µM"}]}, {"smiles": "Cc1ccc(NC(=O)c2cc(N3CCOCC3)cc(C(F)(F)F)c2)cc1N1Cc2cnc(NC3CC3)nc2C2(CC2)C1=O", "values": [{"measurement": "GI50", "setting": "C4-2B cells", "result": "< 5", "unit": "µM"}, {"measurement": "GI50", "setting": "AsPC-1", "result": "< 10", "unit": "µM"}, {"measurement": "GI50", "setting": "SW480", "result": "< 5", "unit": "µM"}, {"measurement": "GI50", "setting": "SW620", "result": "< 5", "unit": "µM"}]}, {"smiles": "Cc1ccc(NC(=O)c2cc(N3CCNCC3)cc(C(F)(F)F)c2)cc1N1Cc2cnc(NC3CC3)nc2C2(CC2)C1=O", "values": [{"measurement": "GI50", "setting": "C4-2B cells", "result": "< 10", "unit": "µM"}]}, {"smiles": "Cc1ccc(NC(=O)c2ccc(F)c(C(F)(F)F)c2)cc1N1Cc2cnc(N)nc2C2(CC2)C1=O", "values": [{"measurement": "GI50", "setting": "C4-2B cells", "result": "< 5", "unit": "µM"}, {"measurement": "GI50", "setting": "22Rv1 cells", "result": "< 5", "unit": "µM"}]}, {"smiles": "COCCN(C)c1cc(C(=O)Nc2ccc(C)c(N3Cc4cnc(N)nc4C4(CC4)C3=O)c2)cc(C(F)(F)F)c1", "values": [{"measurement": "GI50", "setting": "C4-2B cells", "result": "< 5", "unit": "µM"}]}, {"smiles": "Cc1ccc(NC(=O)c2cc(F)cc(C(F)(F)F)c2)cc1N1Cc2cnc(NC3CC3)nc2C2(CC2)C1=O", "values": [{"measurement": "GI50", "setting": "C4-2B cells", "result": "< 10", "unit": "µM"}]}, {"smiles": "Cc1ccc(NC(=O)c2ccc(C)c(C(F)(F)F)c2)cc1N1Cc2cnc(NC3CC3)nc2C2(CC2)C1=O", "values": [{"measurement": "GI50", "setting": "C4-2B cells", "result": "< 5", "unit": "µM"}]}, {"smiles": "Cc1ccc(NC(=O)c2cccc(C(F)(F)F)c2)cc1N1Cc2cnc(NC3CC3)nc2C2(CC2)C1=O", "values": [{"measurement": "GI50", "setting": "C4-2B cells", "result": "< 5", "unit": "µM"}, {"measurement": "GI50", "setting": "AsPC-1", "result": "< 5", "unit": "µM"}, {"measurement": "GI50", "setting": "HCT-116", "result": "< 5", "unit": "µM"}, {"measurement": "GI50", "setting": "SW480", "result": "< 5", "unit": "µM"}, {"measurement": "GI50", "setting": "SW620", "result": "< 5", "unit": "µM"}, {"measurement": "GI50", "setting": "MDA-MB-231", "result": "< 5", "unit": "µM"}]}, {"smiles": "Cc1ccc(NC(=O)c2cncc(C(F)(F)F)c2)cc1N1Cc2cnc(N)nc2C2(CC2)C1=O", "values": [{"measurement": "GI50", "setting": "C4-2B cells", "result": "< 5", "unit": "µM"}, {"measurement": "GI50", "setting": "22Rv1 cells", "result": "< 10", "unit": "µM"}, {"measurement": "GI50", "setting": "HCI-H460", "result": "< 5", "unit": "µM"}, {"measurement": "GI50", "setting": "AsPC-1", "result": "< 5", "unit": "µM"}, {"measurement": "GI50", "setting": "MIA-Paca-2", "result": "< 5", "unit": "µM"}, {"measurement": "GI50", "setting": "DLD-1", "result": "< 5", "unit": "µM"}, {"measurement": "GI50", "setting": "SW480", "result": "< 5", "unit": "µM"}, {"measurement": "GI50", "setting": "MDA-MB-231", "result": "< 5", "unit": "µM"}, {"measurement": "GI50", "setting": "SKOV3", "result": "< 5", "unit": "µM"}]}, {"smiles": "Cc1ccc(NC(=O)c2cc(F)cc(C(F)(F)F)c2)cc1N1Cc2cnc(N)nc2C2(CC2)C1=O", "values": [{"measurement": "GI50", "setting": "HCT-116", "result": "< 5", "unit": "µM"}, {"measurement": "GI50", "setting": "SW480", "result": "< 5", "unit": "µM"}, {"measurement": "GI50", "setting": "SW620", "result": "< 5", "unit": "µM"}, {"measurement": "GI50", "setting": "MDA-MB-231", "result": "< 5", "unit": "µM"}]}]}
